The numbers were not newly measured in paper PMC10361461, “Evaluating the solubility of compounds intended for intramammary infusion based upon tests conducted across a range of milk matrices” (PLOS ONE, 2023), which cites them from elsewhere.

The conditions of the data set: cited from earlier work.

On to `CN1C(C(=O)Nc2ccccn2)=C(O)c2ccccc2S1(=O)=O` [Piroxicam], for which the “Ionization state at pH 7” value was “Negatively charged”.
